# Apparent affinities of Ab-14 variants for a coronavirus HR2 peptide

Data: MIT Lincoln Laboratory AlphaSeq set, Engelhart et al. 2022, doi:10.1038/s41597-022-01779-4, as distributed in FLAb.

Antigen: PDVDLGDISGINAS, a 14-residue peptide of the SARS-CoV-2 spike HR2 region.

Each scFv is VH, the linker GGGGSGGGGSGGGGS, VL, as in the parent Ab-14, and differs from it in the CDRs of the light chain only.
VH: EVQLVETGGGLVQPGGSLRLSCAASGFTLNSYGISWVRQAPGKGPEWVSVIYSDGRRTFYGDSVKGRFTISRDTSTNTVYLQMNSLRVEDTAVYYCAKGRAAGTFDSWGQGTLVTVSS
VL: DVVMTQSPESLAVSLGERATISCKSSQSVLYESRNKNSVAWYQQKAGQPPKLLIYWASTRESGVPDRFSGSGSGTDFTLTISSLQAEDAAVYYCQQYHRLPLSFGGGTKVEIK

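Phage display of a naive human antibody library on the peptide gave the parent. Library AAYL50 holds single substitutions and randomly drawn double and triple substitutions in the CDRs. The scFvs were displayed on barcoded MATa yeast, the peptide on MATalpha yeast. Pairs that bind mate more often; barcode pairs of the diploids are counted by sequencing. Scores were corrected for input abundance and mapped to Kd with protein pairs of known affinity run in the same pool. Each pool was mated in three replicate cultures.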

The parent's light chain CDRs are KSSQSVLYESRNKNSVA, WASTRES, QQYHRLPLS; each variant's own CDRs replace them letter for letter. Every variant below is changed at S25 of the VL (sequential numbering). Each Kd is an estimate from the mating assay, the geometric mean of the replicates in which the pair was seen; lower is stronger. "no signal" means that the variant was in the library but no mating with the target was seen in any replicate; the authors take this as a sign of poor binding, and no number exists. Entries are sorted by rising average, undetected variants last.

- KMSQSVLQESRNKNSIA / WASTRES / QQYHRLPLS = 1.1 nM (3 of 3 replicates; controls 1 of 9)
- KASQSVSYESRNKNSVA / SASTRES / QQYHRLPLS = 1.3 nM (3 of 3 replicates; controls 0 of 9)
- KCSQSVLFESRNPNSVA / WASTRES / QQYHRLPLS = 1.7 nM (3 of 3 replicates; controls 0 of 9)
- KMSQSVLYESRNKNSVA / WASKRES / QQYHRLPLC = 1.7 nM (3 of 3 replicates; controls 4 of 9)
- KMSQSVLALSRNKNSVA / WASTRES / QQYHRLPLS = 1.8 nM (3 of 3 replicates; controls 0 of 9)
- KVSQAVLYESRNKNQVA / WASTRES / QQYHRLPLS = 2.0 nM (3 of 3 replicates; controls 2 of 9)
- KYSQSVLYESRNKNSVA / WASTRES / QEYHRLPLM = 2.4 nM (3 of 3 replicates; controls 2 of 9)
- KISQSVLYESRNKKSVA / WASTRED / QQYHRLPLS = 2.6 nM (3 of 3 replicates; controls 2 of 9)
- KFSQSDLYESRNKNSVA / WASTRES / QQYHRLPLS = 2.8 nM (3 of 3 replicates; controls 5 of 9)
- KMSQLVLYESRNKNSVA / WASTRVS / QQYHRLPLS = 4.2 nM (3 of 3 replicates; controls 1 of 9)
- KTSQSVLYEERNKNSVA / WASTRDS / QQYHRLPLS = 4.2 nM (3 of 3 replicates; controls 1 of 9)
- KWSQSHLYESRNKNSVA / WASTRES / QQAHRLPLS = 4.3 nM (3 of 3 replicates; controls 3 of 9)
- KVSQSVRVESRNKNSVA / WASTRES / QQYHRLPLS = 4.6 nM (3 of 3 replicates; controls 5 of 9)
- KWSHSELYESRNKNSVA / WASTRES / QQYHRLPLS = 5.4 nM (3 of 3 replicates; controls 2 of 9)
- KESISVLGESRNKNSVA / WASTRES / QQYHRLPLS = 6.0 nM (3 of 3 replicates; controls 5 of 9)
- KISQSVLYESRNKNSVA / WASTRES / QQYHYLPLS = 8.4 nM (3 of 3 replicates; controls 0 of 9)
- KASQSVLYGSRNKNSVA / WASYRES / QQYHRLPLS = 11 nM (3 of 3 replicates; controls 1 of 9)
- KTSQSVLYHNRNKNSVA / WASTRES / QQYHRLPLS = 12 nM (3 of 3 replicates; controls 0 of 9)
- KISCSVLYESRNKNFVA / WASTRES / QQYHRLPLS = 17 nM (3 of 3 replicates; controls 1 of 9)
- KRSQSVLYESHLKNSVA / WASTRES / QQYHRLPLS = 20 nM (3 of 3 replicates; controls 0 of 9)
- KHSASVLYESRNKNSVA / WASTRES / QQYHRLPLT = 31 nM (3 of 3 replicates; controls 7 of 9)
- KPSSSVLYWSRNKNSVA / WASTRES / QQYHRLPLS = 61 nM (3 of 3 replicates; controls 4 of 9)
- KCSQSVLYESRNKNSVA / WAATRLS / QQYHRLPLS = 83 nM (3 of 3 replicates; controls 0 of 9)
- KRSQSQLYESRNKNSVA / WASTRES / QQYHRLPLS = 220 nM (3 of 3 replicates; controls 1 of 9)
- KQSQSVLYESRNKNSVA / WASTRWS / QQYHRLPLE = 310 nM (3 of 3 replicates; controls 5 of 9)
- KESQSVLYESRNLNSVA / WASTRES / HQYHRLPLS = 330 nM (3 of 3 replicates; controls 2 of 9)
- KQSQSVLYESRNKNKVA / GASTRES / QQYHRLPLS = 400 nM (3 of 3 replicates; controls 4 of 9)
- KPSQSVLYESRNKNSVA / WASTRES / GQYHRLPLS = 460 nM (3 of 3 replicates; controls 0 of 9)
- KDSQSVLKESRNKPSVA / WASTRES / QQYHRLPLS = 650 nM (3 of 3 replicates; controls 0 of 9)
- QGSQSVLYESRNKNSVA / WASTRES / QQYHRLPMS = 720 nM (3 of 3 replicates; controls 3 of 9)
- KRSQSVLYEMRNKNWVA / WASTRES / QQYHRLPLS = 980 nM (1 of 3 replicates; controls 1 of 9)
- KASQSVLYELRNKNSVA / WASTRES / QSYHRLPLS = 1.2 µM (3 of 3 replicates; controls 2 of 9)
- KTSQSVLYHSRNKNSVA / WHSTRES / QQYHRLPLS = 5.7 µM (1 of 3 replicates; controls 1 of 9)
- KFSQSPLYESRNKNSVS / WASTRES / QQYHRLPLS = 6.2 µM (3 of 3 replicates; controls 4 of 9)
- KVSQSVLYESRNKNSVA / WASTRES / SQYHRLPNS = 9.4 µM (1 of 3 replicates; controls 1 of 9)
- KNSQWVLYESRNKNSVA / WASTRES / QQYHRLFLS = 13 µM (2 of 3 replicates; controls 4 of 9)
- KRSQSVTYESRNKNSVA / WASTQES / QQYHRLPLS = 35 µM (1 of 3 replicates; controls 2 of 9)
- KEFQSVLYESRRKNSVA / WASTRES / QQYHRLPLS = 47 µM (2 of 3 replicates; controls 2 of 9)
- KHSQSVLYESRNKNSVA / WASDRES / QQYHRVPLS = 78 µM (1 of 3 replicates; controls 4 of 9)
- KNSQSVLYVSRNKNSVA / WASTRES / QRYHRLPLS = 270 µM (1 of 3 replicates; controls 1 of 9)
- GVSQSVLYESRFKNSVA / WASTRES / QQYHRLPLS = no signal (0 of 3 replicates; controls 0 of 9)
- KASQSVLYESRNKNSVA / WSSGRES / QQYHRLPLS = no signal (0 of 3 replicates; controls 0 of 9)
- KDSQSVLYESRNKWSVA / WASTRES / QPYHRLPLS = no signal (0 of 3 replicates; controls 1 of 9)
- KPSQSTLYESRNKNSVA / WASGRES / QQYHRLPLS = no signal (0 of 3 replicates; controls 0 of 9)
- KGSQSVLYESRNKNSKA / WASTLES / QQYHRLPLS = no signal (0 of 3 replicates; controls 2 of 9)
- KYSQSVLKESRNKNSVA / WASTRES / QQYHRQPLS = no signal (0 of 3 replicates; controls 0 of 9)
- KKSQSVLYESRNKNTVA / WASTREK / QQYHRLPLS = no signal (0 of 3 replicates; controls 0 of 9)
- KGSQSVLYESRNKNSVA / WASTRES / QQYHRKPLS = no signal (0 of 3 replicates; controls 2 of 9)

4 of these entries, quoted again:

CDR-L1,CDR-L2,CDR-L3,apparent Kd,detected,signal with controls
KHSASVLYESRNKNSVA,WASTRES,QQYHRLPLT,31 nM,3/3,7/9
KYSQSVLKESRNKNSVA,WASTRES,QQYHRQPLS,no signal,0/3,0/9
KMSQSVLALSRNKNSVA,WASTRES,QQYHRLPLS,1.8 nM,3/3,0/9
KHSQSVLYESRNKNSVA,WASDRES,QQYHRVPLS,78 µM,1/3,4/9

For reference, the parent read 4.4 nM as the reference entry and 48 nM as a member of this library. As a blank, each scFv also met three strains without target: over library AAYL50, 18% of these pairings were detected, typically at 15 µM and seldom below 970 nM. For each scFv, signals with the empty controls are counted beside the result.